Results from patent publication US20080096903A1, “SULFAMOYL-CONTAINING DERIVATIVES AND USES THEREOF” (Wyeth, priority 2006, published 2008).
pIC50: −log10 of the molar value. This is a selection: effects in other tests are not listed, and their absence says nothing.

Key:
Hsp90α Protein = Hsp90α Protein (Homo sapiens, UniProt P07900); assay: Hsp90 CE Competitive Binding Assay (displacement of fluorescein-labelled geldanamycin); conditions: read-out: CE IC50; Table 14; inhibition of binding of labeled geldanamycin to Hsp90
[1] = system: Hsp90 (luciferase refolding, cancer cell lysate); assay: Luciferase Refolding Assay; conditions: read-out: Luciferase IC50; inhibition of luciferase refolding by Hsp90
[2] = system: HER2/Neu protein in SK-OV-3 cells; assay: Hsp90 Client Protein Degradation Assay; conditions: read-out: Client Protein IC50, 50% degradation of HER2/Neu protein, overnight
Human cancer cell lines = assay: Cancer-Derived Cell Line Growth Inhibition Assays; conditions: read-out: Cell Growth Inhibition IC50; 3 days, Cell Titer Blue

CC(C)N(CCCOS(N)(=O)=O)CCn1c(Cc2cc3c(cc2I)OCO3)nc2c(N)nc(F)nc21
pIC50 (Hsp90α Protein): > 5.00 | pIC50 [1]: > 6.00 | pIC50 [2]: > 4.30 | pIC50 (Human cancer cell lines): > 4.00
